Reference: publication PMC9959048, “Lipidation of Naturally Occurring α-Helical Antimicrobial Peptides as a Promising Strategy for Drug Design” (International Journal of Molecular Sciences, 2023)

Columns and labels:
C. glabrata CCM8270 = type: cell-based, Candida glabrata; conditions: RPMI-1640 with MOPS and 2% glucose, inoculum 5 × 10^3 CFU/mL, 24 h, 35 °C, absorbance 600 nm, triplicate
Procedure: (§1) The evaluation of the antimicrobial activity of the synthesized lipopeptides was performed against the following reference bacterial and fungal strains: Staphylococcus aureus PCM 1650, Staphylococcus aureus PCM 2054, Staphylococcus epidermidis PCM 521, Staphylococcus epidermidis PCM 2118, Escherichia coli PCM 2057, Candida albicans PCM 2566, Candida glabrata CCM 8270, Candida krusei CCM 8271, Candida parapsilosis CCM 8260.
(§2) For the initial cultivation of the bacteria and fungi, Luria-Bertani broth (LB, Biomaxima, Lublin, Poland) and Sabouraud Dextrose broth (SB, Biomaxima, Lublin, Poland) were used, respectively. Antimicrobial properties of the compounds were analyzed through the determination of MIC (minimal inhibitory concentrations) by my means of the serial micro-dilution technique according to the guidelines of Clinical & Laboratory Standard Institute (CLSI) established for aerobic bacteria and yeasts. […]
(§3) The experiments were carried out for 24 h at 37 and 35 °C for the bacteria and fungi, respectively. Then, the absorbance was measured at 600 nm for each well of the 96-well plate using a microplate reader (Sunrise TM, Tecan Trading AG, Männedorf, Switzerland). Based on the obtained results, the degree of inhibition of the growth of microorganisms (expressed in %) in the presence of the tested compounds range was determined with respect to the control probes. […]

S. aureus PCM2054 = type: cell-based, Staphylococcus aureus; conditions: Mueller–Hinton broth, inoculum 5 × 10^5 CFU/mL, 24 h, 37 °C, absorbance 600 nm, triplicate
Procedure: as §1, §2, §3

C. albicans PCM2566 = type: cell-based, Candida albicans; conditions: RPMI-1640 with MOPS and 2% glucose, inoculum 5 × 10^3 CFU/mL, 24 h, 35 °C, absorbance 600 nm, triplicate
Procedure: as §1, §2, §3

E. coli PCM2057 = type: cell-based, Escherichia coli; conditions: Mueller–Hinton broth, inoculum 5 × 10^5 CFU/mL, 24 h, 37 °C, absorbance 600 nm, triplicate
Procedure: as §1, §2, §3

C. krusei CCM8271 = type: cell-based, Candida krusei; conditions: RPMI-1640 with MOPS and 2% glucose, inoculum 5 × 10^3 CFU/mL, 24 h, 35 °C, absorbance 600 nm, triplicate
Procedure: as §1, §2, §3

S. epidermidis PCM2118 = type: cell-based, Staphylococcus epidermidis; conditions: Mueller–Hinton broth, inoculum 5 × 10^5 CFU/mL, 24 h, 37 °C, absorbance 600 nm, triplicate
Procedure: as §1, §2, §3

S. epidermidis PCM521 = type: cell-based, Staphylococcus epidermidis; conditions: Mueller–Hinton broth, inoculum 5 × 10^5 CFU/mL, 24 h, 37 °C, absorbance 600 nm, triplicate
Procedure: as §1, §2, §3

C. parapsilosis CCM 8260 = type: cell-based, Candida parapsilosis; conditions: RPMI-1640 with MOPS and 2% glucose, inoculum 5 × 10^3 CFU/mL, 24 h, 35 °C, absorbance 600 nm, triplicate
Procedure: as §1, §2, §3

CC(C)C[C@H](NC(=O)[C@H](CCCCN)NC(=O)[C@H](CCCCN)NC(=O)[C@H](Cc1ccccc1)NC(=O)[C@H](Cc1ccccc1)NC(=O)[C@H](CCCCN)NC(=O)[C@H](CCCCN)NC(=O)[C@H](Cc1ccccc1)NC(=O)[C@H](CCCNC(=N)N)NC(=O)[C@@H](N)CCCCN)C(=O)N[C@@H](CCCCN)C(N)=O [ATRA-1, reference compound]
MIC, C. glabrata CCM8270 (C. glabrata CCM8270): >50 µg/mL | MIC, S. aureus PCM2054 (S. aureus PCM2054): >50 µg/mL | MIC, C. albicans PCM2566 (C. albicans PCM2566): >50 µg/mL | MIC, E. coli PCM2057 (E. coli PCM2057): >50 µg/mL | MIC, C. krusei CCM8271 (C. krusei CCM8271): 50 µg/mL (≈ 33.4 µM) | MIC, S. epidermidis PCM2118 (S. epidermidis PCM2118): 50 µg/mL (≈ 33.4 µM) | MIC, S. epidermidis PCM521 (S. epidermidis PCM521): 25 µg/mL (≈ 16.7 µM) | MIC, C. parapsilosis CCM 8260 (C. parapsilosis CCM 8260): 50 µg/mL (≈ 33.4 µM)

Converted amounts (≈) assume the structure as drawn.
